Earlier results on one molecule are cited in publication PMC6966871.

The data set concerns NSCLC harboring c-MET exon14 skipping mutations. Further details: method as in doi:10.1200/JCO.2018.36.15_suppl.9016. The settings on record: NSCLC with c-MET exon14 skipping mutations (9/15); cited from earlier work.

As to `CN1CCC(COc2cnc(-c3cccc(Cn4nc(-c5cccc(C#N)c5)ccc4=O)c3)nc2)CC1` [tepotinib], the ORR was 60%.
